Test [1] has as its target mouse Celsr3 (Celsr3-Flag) (mouse) (UniProt Q91ZI0). Description: binding of biotin-Aβ42 oligomers to Celsr3-expressing HEK293T cells; concentration as total peptide, monomer equivalent.
For test [2] the target is unchanged. Kind of test: biotin-Aβ42 oligomers on Celsr3-Flag HEK293T cells, streptavidin-488 imaging; concentration as total peptide, monomer equivalent.

The chains behind the UniProt entries cited, without tags or fusion partners. Residues count along the entry.
UniProt Q91ZI0, 32-3301: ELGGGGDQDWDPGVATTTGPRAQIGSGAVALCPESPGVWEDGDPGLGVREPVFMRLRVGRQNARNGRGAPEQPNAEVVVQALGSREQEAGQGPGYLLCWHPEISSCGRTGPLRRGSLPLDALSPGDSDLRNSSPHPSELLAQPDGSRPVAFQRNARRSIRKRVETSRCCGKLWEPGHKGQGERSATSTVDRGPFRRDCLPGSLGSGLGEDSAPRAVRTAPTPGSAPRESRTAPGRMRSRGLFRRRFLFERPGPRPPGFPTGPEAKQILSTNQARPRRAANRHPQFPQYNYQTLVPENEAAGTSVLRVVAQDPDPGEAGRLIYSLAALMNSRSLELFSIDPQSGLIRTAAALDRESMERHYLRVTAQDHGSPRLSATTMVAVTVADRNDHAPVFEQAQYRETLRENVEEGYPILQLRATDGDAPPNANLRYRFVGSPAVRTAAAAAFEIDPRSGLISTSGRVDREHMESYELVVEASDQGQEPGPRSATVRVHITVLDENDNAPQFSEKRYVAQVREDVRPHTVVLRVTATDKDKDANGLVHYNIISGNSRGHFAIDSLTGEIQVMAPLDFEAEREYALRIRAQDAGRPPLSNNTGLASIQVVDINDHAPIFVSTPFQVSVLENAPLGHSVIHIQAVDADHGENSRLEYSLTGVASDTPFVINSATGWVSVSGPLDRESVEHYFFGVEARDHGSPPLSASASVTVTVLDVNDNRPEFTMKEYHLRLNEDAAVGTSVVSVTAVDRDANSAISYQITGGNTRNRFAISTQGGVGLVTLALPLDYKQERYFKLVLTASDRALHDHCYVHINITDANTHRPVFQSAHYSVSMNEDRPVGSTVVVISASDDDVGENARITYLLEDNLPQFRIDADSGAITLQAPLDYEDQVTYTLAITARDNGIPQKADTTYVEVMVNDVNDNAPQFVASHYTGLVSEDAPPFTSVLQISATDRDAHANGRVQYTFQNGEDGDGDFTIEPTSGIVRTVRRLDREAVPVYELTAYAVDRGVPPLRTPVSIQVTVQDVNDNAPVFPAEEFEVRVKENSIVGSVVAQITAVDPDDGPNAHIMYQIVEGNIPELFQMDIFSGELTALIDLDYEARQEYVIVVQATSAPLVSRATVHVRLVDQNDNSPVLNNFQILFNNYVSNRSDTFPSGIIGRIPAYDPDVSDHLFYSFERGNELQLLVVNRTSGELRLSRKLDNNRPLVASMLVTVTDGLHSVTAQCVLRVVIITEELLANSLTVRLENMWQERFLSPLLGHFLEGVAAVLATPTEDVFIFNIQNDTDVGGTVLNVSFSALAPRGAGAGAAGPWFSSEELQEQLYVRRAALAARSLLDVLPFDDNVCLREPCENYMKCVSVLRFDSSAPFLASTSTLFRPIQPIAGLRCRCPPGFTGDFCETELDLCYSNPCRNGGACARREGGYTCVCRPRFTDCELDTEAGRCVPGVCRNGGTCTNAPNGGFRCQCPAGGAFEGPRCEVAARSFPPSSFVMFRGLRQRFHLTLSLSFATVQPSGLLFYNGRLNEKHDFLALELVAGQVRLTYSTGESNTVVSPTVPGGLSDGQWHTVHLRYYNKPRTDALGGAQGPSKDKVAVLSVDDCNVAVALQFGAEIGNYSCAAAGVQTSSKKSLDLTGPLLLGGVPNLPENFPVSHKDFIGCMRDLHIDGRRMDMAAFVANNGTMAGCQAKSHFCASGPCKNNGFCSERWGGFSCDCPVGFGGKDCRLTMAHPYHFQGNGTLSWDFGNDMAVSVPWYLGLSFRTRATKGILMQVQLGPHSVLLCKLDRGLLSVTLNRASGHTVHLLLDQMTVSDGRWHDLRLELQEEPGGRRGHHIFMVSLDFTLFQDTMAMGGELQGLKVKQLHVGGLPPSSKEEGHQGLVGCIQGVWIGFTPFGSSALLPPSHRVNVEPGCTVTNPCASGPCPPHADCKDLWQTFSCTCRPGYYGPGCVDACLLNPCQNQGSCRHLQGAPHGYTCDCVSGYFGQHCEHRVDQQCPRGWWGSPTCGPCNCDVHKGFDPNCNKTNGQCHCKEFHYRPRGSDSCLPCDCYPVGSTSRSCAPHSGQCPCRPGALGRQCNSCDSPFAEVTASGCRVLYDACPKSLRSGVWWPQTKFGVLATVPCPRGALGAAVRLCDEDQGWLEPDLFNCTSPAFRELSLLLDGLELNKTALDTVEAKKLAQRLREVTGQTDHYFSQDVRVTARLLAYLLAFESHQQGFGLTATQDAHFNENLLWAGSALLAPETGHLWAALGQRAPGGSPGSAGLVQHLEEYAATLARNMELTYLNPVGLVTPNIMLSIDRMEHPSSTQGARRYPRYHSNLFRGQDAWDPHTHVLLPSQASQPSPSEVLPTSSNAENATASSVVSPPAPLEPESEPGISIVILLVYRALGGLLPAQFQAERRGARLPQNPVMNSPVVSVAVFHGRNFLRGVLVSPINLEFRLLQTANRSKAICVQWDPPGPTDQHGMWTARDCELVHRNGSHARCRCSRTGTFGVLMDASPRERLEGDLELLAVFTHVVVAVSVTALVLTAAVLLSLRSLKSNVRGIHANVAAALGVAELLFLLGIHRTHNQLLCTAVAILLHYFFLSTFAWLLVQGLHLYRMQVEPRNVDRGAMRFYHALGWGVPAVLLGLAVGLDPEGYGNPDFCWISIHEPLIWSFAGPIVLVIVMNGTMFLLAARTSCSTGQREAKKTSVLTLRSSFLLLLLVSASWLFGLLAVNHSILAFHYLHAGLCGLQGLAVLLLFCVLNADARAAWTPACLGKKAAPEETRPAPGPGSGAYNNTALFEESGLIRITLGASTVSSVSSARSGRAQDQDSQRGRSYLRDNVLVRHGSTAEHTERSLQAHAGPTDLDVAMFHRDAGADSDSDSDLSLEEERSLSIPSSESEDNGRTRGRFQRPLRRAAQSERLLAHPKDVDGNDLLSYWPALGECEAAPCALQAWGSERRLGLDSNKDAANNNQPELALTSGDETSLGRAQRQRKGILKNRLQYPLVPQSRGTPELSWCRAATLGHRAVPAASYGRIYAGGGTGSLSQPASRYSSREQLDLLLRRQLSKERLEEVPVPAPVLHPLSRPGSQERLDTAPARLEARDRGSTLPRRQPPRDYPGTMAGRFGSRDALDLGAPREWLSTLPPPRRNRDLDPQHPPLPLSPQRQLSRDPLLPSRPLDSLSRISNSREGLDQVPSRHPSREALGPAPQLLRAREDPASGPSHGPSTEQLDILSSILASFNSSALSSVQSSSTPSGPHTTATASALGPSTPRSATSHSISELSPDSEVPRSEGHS

Broadly, the Kd is the constant that tells how readily two partners part at equilibrium.

Take “oligomeric Aβ42 (biotin-Aβ42 oligomers) (peptide; biotin (human biotin-beta-Amyloid (1-42), AnaSpec); position not stated)”: the dissociation constant Kd in test [1] is 39.2 nM; in test [2] it was 40 nM.
